From patent EP4825367A1, “COSMETIC COMPOSITION FOR SKIN SOOTHING” (dated 2026)

What was measured:
RAW 264.7 cells = assay: Nitric oxide (NO) production inhibition in LPS-stimulated RAW 264.7 cells (GRIESS reagent); settings: 500 ng/mL LPS, 18 hours
Description: To confirm the anti-inflammatory effect of the cosmetic composition of the present invention, the nitric oxide (NO) production inhibitory effect of each prepared sample was evaluated using RAW 264.7 cells.
Specifically, RAW 264.7 cells were pre-treated with each sample as shown in Table 1 below for 30 minutes, and then 500 ng/mL of lipopolysaccharide (LPS) was added, followed by incubation for 18 hours. After incubation, the supernatant was collected, transferred to a 96-well plate, and allowed to react with GRIESS reagent at room temperature for 15 minutes. The absorbance at 540 nm was measured using an ELISA reader, and the NO production inhibitory ability was calculated using the following equation. [formula] • * Positive control: 100 µM L-NMMA (80.9% NO production inhibition rate) • * Negative control: RAW 264.7 cells treated with LPS only [Table 1]

[1] = Skin permeability with Franz Cell and transdermal diffusion testing membrane; settings: Troxerutin 1%, 100 µL applied, 24 hours, 37.5 °C, 50% relative humidity
Description: The skin permeability of the combination of troxerutin and the arginine-glutamate eutectic mixture was evaluated.
Specifically, the amount of skin adsorption was evaluated using a Franz Cell (FCDV-15, Labfine). A transdermal diffusion testing membrane (Start-M 25 mm, Merck), which can predict skin permeability, was positioned between a donor chamber and a receptor chamber, and 3 mL of PBS solution was added to the receptor chamber.
As the evaluation method, 100 µL of each of [1% troxerutin] and [1% troxerutin + 10% arginine-glutamate eutectic mixture] was applied onto the membrane. Subsequently, rolling was performed 10 times for 30 seconds using a polyethylene stick, and permeation was then allowed to proceed in a constant temperature and humidity chamber at 37.5 °C and 50% relative humidity for 24 hours. Thereafter, the content of troxerutin in the receptor chamber was measured.
The concentration of troxerutin was determined by fluorescence spectrum measurement (Ex: 360 nm, measurement range: 380 to 700 nm). After quantifying the concentration based on the fluorescence intensity measured at 470 nm, the permeated amount of troxerutin was calculated using the resulting value and the volume of the extraction solvent.

IL-1β = assay: Inhibition of capsaicin-induced cytokine IL-1β expression in human keratinocytes (real-time PCR); settings: Troxerutin 1 ppm; 1 hour pre-treatment, 50 µm capsaicin, 24 hours
Description: To confirm the anti-inflammatory effect of the combination of troxerutin and the arginine-glutamate eutectic mixture, the inhibitory effect on the production of a sensitive irritation factor (cytokine) induced by capsaicin was evaluated in a human keratinocyte cell line.
Specifically, human keratinocytes were pre-treated with each sample as shown in Table 2 below for 1 hour, and then 50 µm capsaicin was added, followed by incubation for 24 hours. After incubation, RNA was extracted and cDNA was synthesized, followed by real-time polymerase chain reaction (real-time PCR) to measure the amount of IL-1β. The sensitive inflammatory cytokine (IL-1β) production inhibitory ability was evaluated using the following equation, and the results are shown in Table 2. [formula]
* Negative control: Human keratinocyte cell line treated with capsaicin only [Table 2]

| Permeability [1] [%] | Troxerutin Permeation Amount ([1]; receptor chamber PBS) [µg] | Structure (SMILES) | NO Production Inhibitory Ability (%) (RAW 264.7 cells; Troxerutin 1 ppm, 30 min pre-treatment) | IL-1β Inhibition Rate (%) (IL-1β) | NO Production Inhibitory Ability (%) (RAW 264.7 cells; Positive control 100 µM) |
| --- | --- | --- | --- | --- | --- |
| 0.086 | 0.86 | C[C@@H]1O[C@@H](OC[C@H]2O[C@@H](Oc3c(-c4ccc(OCCO)c(OCCO)c4)oc4cc(OCCO)cc(O)c4c3=O)[C@H](O)[C@@H](O)[C@@H]2O)[C@H](O)[C@H](O)[C@H]1O | 0 | 25.38 |  |
|  |  | CNC(=N)NCCC[C@H](N)C(=O)O |  |  | 80.9 |
